Reference: patent US5232917A, “Methods, compositions, and compounds for allosteric modulation of the GABA receptor by members of the androstane and pregnane series” (priority 1991, dated 1993)

The chains behind the UniProt entries cited, without tags or fusion partners.
UniProt P49884, whole entry: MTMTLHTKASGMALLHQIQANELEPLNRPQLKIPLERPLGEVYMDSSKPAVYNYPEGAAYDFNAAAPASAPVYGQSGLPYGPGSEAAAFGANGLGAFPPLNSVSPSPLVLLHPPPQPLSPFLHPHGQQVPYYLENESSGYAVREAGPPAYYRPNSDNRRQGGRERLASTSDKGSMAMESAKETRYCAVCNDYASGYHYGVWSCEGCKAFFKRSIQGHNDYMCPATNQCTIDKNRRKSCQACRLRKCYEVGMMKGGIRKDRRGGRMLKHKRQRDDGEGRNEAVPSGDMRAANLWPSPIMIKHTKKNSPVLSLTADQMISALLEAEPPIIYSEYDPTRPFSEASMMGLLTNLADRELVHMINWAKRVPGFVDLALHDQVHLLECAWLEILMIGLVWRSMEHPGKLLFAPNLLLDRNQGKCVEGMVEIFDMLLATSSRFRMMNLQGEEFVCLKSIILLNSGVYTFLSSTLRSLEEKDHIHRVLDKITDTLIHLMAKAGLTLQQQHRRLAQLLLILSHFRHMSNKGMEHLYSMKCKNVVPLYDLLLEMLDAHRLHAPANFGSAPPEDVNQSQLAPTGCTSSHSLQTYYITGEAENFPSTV

Target: T1, estrogen receptor (Bos taurus, UniProt P49884)
T1 construct: from tissue; host or cells: bovine uterus cytosol
Assay: Inhibition of 3H-estradiol binding to bovine uteral estrogen receptors
Conditions: 0.25 nM 3H-estradiol

## CC(=O)[C@H]1CC[C@H]2[C@@H]3CC[C@H]4C[C@](C)(O)CC[C@]4(C)[C@H]3CC[C@]12C [3α-HYDROXY-3β-METHYL-5α-PREGNAN-20-ONE, 3α-hydroxy-3β-methyl-5α-pregnan-20-one]
read-out: % of inhibition of 3H-estradiol binding, B, competitor 10^-5 M
  inhibition at 1 µM: 6%
read-out: % of inhibition of 3H-estradiol binding, B, competitor 10^-6 M
  inhibition at 1 µM: 0%

Where two headings read alike, the source gives them in different places.
